Measurements reported in PMC4635315 (2015).

By UniProt entry, the sequences of proteins in these tests, tags left out. Residues count along the entry.
UniProt Q96G28, 1-133: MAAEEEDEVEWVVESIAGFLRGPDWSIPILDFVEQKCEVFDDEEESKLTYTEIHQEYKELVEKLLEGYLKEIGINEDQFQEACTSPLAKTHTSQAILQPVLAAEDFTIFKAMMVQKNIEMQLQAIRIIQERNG

Target: BARTL1 (CCDC104/CFAP36) 1-133 (Homo sapiens, UniProt Q96G28)
Experiment: fluorescence polarization

Kd: > 50 µM
B1: Arl3 deltaN deltaN (protein)
chain: EVRILLLGLDNAGKTTLLKQLASEDISHITPTQGFNIKSVQSQGFKLNVWDIGGQRKIRPYWRSYFENTDILIYVIDSADRKRFEETGQELTELLEEEKLSCVPVLIFANKQDLLTAAPASEIAEGLNLHTIRDRVWQIQSCSALTGEGVQDGMNWVCKNVNAKKK
modifications: GppNHp-bound Arl3, Cy5-labeled BARTL1
